Reference: patent US11767353B2, “Trail compositions with reduced immunogenicity” (Theraly Fibrosis, Inc., priority 2020, dated 2023)

B1: miLZ-TRAIL: recombinant human TRAIL (amino acids 114-281) preceded by deimmunized isoleucine zipper (SEQ ID NO:4), without His tag (protein)
chain: GRMKQIEDKIEEILSKIYHVENEIARIKELIGEDGVRERGPQRVAAHITGTRGRSNTLSSPNSKNEKALGRKINSWESSRSGHSFLSNLHLRNGELVIHEKGFYYIYSQTYFRFQEEIKENTKNDKQMVQYIYKYTSYPDPILLMKSARNSCWSKDAEYGLYSIYQGGIFELKENDRIFVSVTNEHLIDMDHEASFFGAFLVG
B2: TLY012: PEGylated (5 kDa PEG-aldehyde) recombinant human TRAIL (114-281) fused to modified isoleucine zipper (miLZ) at N-terminus; SEQ ID NO:30 trimer (conjugate)
chain: B1 chain
modifications: 5 kDa PEG; trimer

Key:
[1] = tested on: COLO 205 cells; test: Cell viability bioassay (CELL TITER-GLO) on COLO 205 cells; assay type: cell-based, Human
Description: TLY012 is a PEGylated form of rhTRAIL, genetically fused to a humanized coiled-coil isoleucine “zipper” (miLZ) at the N-terminus. It is a DR4/DR5 receptor agonist and as such is known to induce apoptosis in Human colon adenocarcinoma cells COLO 205 resulting in inhibition of cell proliferation. CELL TITER-GLO™ (Promega, WI) was used to measure luminescence in conventional luciferase assay system. This assay is a homogeneous method to determine the number of metabolically active cells based on quantitation of the ATP present. […]
Assay Procedure. […] The 96-well plates were placed into a 37±1.0° C.; 5±0.5% CO2; ≥85% relative humidity cell culture incubator in a single layer and incubated for 1±0.5 hours until cells are ready. […] As a result, inhibition of cell proliferation is measured by adding the CELL TITER-GLO™ solution to the cells, the lysed cells release ATP. […]
The growth medium was RPMI1640 with 10% FBS, glutamine, penicillin/streptomycin solution. […] Cell suspension was transferred to the white 96-well plates and luminescence was measured by BIOTEK plate reader.
Data were analyzed using BioTek Gen5secure software. The dose response curves were generated using the four-parameter fit logistic model and the IC50 values for reference standard and test samples were calculated. Potency of the test sample is expressed as the ratio of the IC50 values of the test and reference standard samples. […]

[2] = Thermal Shift assay (thermodynamic stability); assay type: physicochemical; settings: FIG. 2A
Description: Proteins were purified using NTA agarose and tested for purity, thermodynamic stability and biological activity. iLZ-TRAIL-containing cells were lysed and supernatant containing high salt (1M NaCl) was prepared by centrifugation. Nucleic acids were digested using benzonase and the resultant cell lysate was incubated with Zn-NTA resin (batch or column) in the presence of low imidazole (typically 10 mM) until the binding capacity of the resin was saturated with respect to iLZ-TRAIL binding. The resin was washed with high-salt buffer in the presence of low imidazole as a batch or as a column content and iLZ-TRAIL was eluted with 125-250 mM imidazole. Eluted proteins were dialyzed against the buffers required for specific assays.

[3] = Solubility at PEGylation in solution, pH 5.0; assay type: physicochemical
Description: The fusion polypeptides used in this study were the same as those in Example 3.

[4] = tested on: Human Colon Carcinoma Fibroblasts HC-6231; test: Caspase 3/7 activity in colon cancer associated fibroblasts; assay type: cell-based; settings: TLY012 30 ng/ml 3h vs Gemcitabine, Doxorubicin, Cisplatin, 5-FU, Irinotecan 24 hours, FIG. 12B
Description: Human Colon Carcinoma Fibroblasts HC-6231 were obtained from Cell Biologics (Catalog Number HC-6231) and maintained in fibroblast media (Cell Biologics, Catalog Number M2267).

Molecule	fold higher biological activity in cell viability bioassay vs His-tag iLZ-TRAIL ([1]; FIG. 2B)	thermodynamic stability in Thermal Shift assay compared to HisTag-iLZ-TRAIL [2]	thermodynamic stability in Thermal Shift assay compared to HisTag-iLZ-TRAIL ([2]; listed as fusion polypeptide containing SEQ ID NO: 4 as the first sequence and SEQ ID NO:1)	starting concentration in PEGylation experiments, no solubility issues observed [3] [mg/mL]	fold higher biological activity (cytotoxicity) vs the prototype (PEGylated TRAIL with HIS-tag) ([1]; COLO 205 cells, Table 2) [fold]	apoptosis (fold increase in caspase 3/7 activation) among tested cytotoxic agents [4]
B1	about 5 fold	just a small shoulder instead of the first peak	statistically higher thermodynamic stability	15		
B2					9	significantly greater apoptosis
